Earlier results in patent publication US20240261236A1, “METHODS OF USING NMDA RECEPTOR ANTAGONISTS” (Seelos Therapeutics, Inc., priority 2021, published 2024).

Target: NMDA receptor
Settings: binds to the NMDA receptor; Moaddel et al. 2013; cited from earlier work

Which Ki does the source give for `CNC1(c2ccccc2Cl)CCCCC1=O` (racemic) [intranasal racemic ketamine, 1:1 mixture of the two enantiomers of ketamine: (R)-2-(2-chlorophenyl)-2-(methylamino)cyclohexanone and (S)-2-(2-chlorophenyl)-2-(methylamino)cyclohexanone] here?
Its Ki is about 1060 nM.
